Consider 3 compounds from PMC6445159, “Resorcinol-, catechol- and saligenin-based bronchodilating β2-agonists as inhibitors of human cholinesterase activity” (Journal of Enzyme Inhibition and Medicinal Chemistry, 2017).

Protein sequences, listed by entry. Tags and fused reporters are not part of them. Residues count along the entry.
UniProt P22303, 32-614: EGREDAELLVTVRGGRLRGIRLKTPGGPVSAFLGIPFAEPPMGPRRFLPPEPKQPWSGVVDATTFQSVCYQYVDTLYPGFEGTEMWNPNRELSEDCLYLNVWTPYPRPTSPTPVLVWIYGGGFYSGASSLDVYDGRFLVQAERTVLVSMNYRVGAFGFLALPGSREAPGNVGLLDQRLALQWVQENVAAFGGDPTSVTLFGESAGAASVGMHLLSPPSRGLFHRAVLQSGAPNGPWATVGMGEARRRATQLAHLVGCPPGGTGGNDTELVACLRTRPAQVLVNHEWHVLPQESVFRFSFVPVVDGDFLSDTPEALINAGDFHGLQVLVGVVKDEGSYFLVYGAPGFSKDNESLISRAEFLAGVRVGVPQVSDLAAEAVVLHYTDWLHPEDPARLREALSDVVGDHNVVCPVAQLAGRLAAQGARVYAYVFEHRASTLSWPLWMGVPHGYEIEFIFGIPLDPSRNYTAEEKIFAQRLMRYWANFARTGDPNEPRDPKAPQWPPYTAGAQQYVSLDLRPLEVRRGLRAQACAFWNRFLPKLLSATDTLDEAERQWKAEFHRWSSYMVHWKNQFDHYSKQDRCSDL
UniProt P06276, 29-602: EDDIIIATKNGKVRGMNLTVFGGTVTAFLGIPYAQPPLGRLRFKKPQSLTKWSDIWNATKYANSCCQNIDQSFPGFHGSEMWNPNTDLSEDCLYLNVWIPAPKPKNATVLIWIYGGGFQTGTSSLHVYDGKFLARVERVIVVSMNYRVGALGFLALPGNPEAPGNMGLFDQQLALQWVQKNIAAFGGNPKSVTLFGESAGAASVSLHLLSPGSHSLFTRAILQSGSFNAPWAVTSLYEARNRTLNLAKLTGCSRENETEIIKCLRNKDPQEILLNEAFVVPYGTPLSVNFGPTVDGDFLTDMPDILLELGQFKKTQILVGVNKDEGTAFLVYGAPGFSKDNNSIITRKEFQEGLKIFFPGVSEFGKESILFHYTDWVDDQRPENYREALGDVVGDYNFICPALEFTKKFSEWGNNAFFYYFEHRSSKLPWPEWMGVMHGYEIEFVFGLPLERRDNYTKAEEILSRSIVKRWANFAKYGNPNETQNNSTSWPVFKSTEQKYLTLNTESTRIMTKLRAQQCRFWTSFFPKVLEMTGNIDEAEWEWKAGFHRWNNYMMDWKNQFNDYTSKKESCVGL
UniProt P06276, 29-602 D98G: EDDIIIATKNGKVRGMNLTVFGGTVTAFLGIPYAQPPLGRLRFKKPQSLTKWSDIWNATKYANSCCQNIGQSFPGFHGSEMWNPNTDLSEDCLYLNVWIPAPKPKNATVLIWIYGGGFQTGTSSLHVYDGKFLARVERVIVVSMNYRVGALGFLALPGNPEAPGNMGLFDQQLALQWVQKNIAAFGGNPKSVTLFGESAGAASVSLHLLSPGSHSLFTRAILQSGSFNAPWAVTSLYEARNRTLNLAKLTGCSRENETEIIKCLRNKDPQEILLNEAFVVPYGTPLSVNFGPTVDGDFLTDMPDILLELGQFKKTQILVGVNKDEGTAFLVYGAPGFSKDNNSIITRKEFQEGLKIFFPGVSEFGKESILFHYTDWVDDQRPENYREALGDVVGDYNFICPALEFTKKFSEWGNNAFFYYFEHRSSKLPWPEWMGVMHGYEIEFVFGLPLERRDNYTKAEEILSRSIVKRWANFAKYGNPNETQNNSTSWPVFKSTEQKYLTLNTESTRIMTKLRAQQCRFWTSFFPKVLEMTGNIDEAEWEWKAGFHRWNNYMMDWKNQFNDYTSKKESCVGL

The target in one experiment is human AChE (Homo sapiens, UniProt P22303). In kind it is biochemical. Conditions: for Ki: enantiomers, substrate ATCh, pH 7.4, 25 °C, K(I) ± SE. As to the method: (§1) ATCh was used as a substrate for AChE and PTCh as a substrate for BChE. The reaction mixture contained DTNB (final concentration 0.3 mM), buffer, enzyme suspension, inhibitor (0.5–10 mM) and ATCh or PTCh (0.025–1.0 mM). Inhibition of enzymes was determined by measuring the decrease in enzyme activity in the presence of inhibitors.
(§2) The dissociation constant for an enzyme–inhibitor complex K(I) was evaluated from the impact of substrate concentrations [S] on the degree of inhibition applying the Hunter–Downs equation[17]^,[39]: Ki,app=vi/v0-vi·[I]=K(I)+K(I)/K(S)·[S] where Ki,app is an apparent enzyme-reversible inhibitor complex dissociation constant obtained at a given substrate concentration [S] in the presence of inhibitor concentration [I] and calculated from the enzyme activities v0 and vi measured without inhibitor and in the presence of inhibitor concentration [I], respectively. K(I) is the enzyme-reversible inhibitor complex dissociation constant and can stand for a complex formed at the catalytic site or for a complex formed at the peripheral site of the enzyme. K(S) is the enzyme-substrate dissociation constant that could be approximated to the Michaelis constant or to the enzyme-substrate dissociation constant when two molecules of the substrate are bound to the enzyme.

The target in the next experiment is T1, usual BChE (Homo sapiens, UniProt P06276).
T1 construct: Human native serum was used as a source of BChE; from tissue; host or cells: human serum (donor, IMROH Zagreb)
In kind it is biochemical. Conditions: for Ki: enantiomers, substrate PTCh, pH 7.4, 25 °C, K(I) ± SE. How it is done:
as §1, §2

In another experiment the target is fluoride-resistant BChE (Homo sapiens, UniProt P06276). Conditions: enantiomers; substrate PTCh, pH 7.4, 25 °C; K(I) ± SE. How it is done:
as §1, §2

In the next experiment the target is T2, atypical BChE (Homo sapiens, UniProt P06276, D98G).
T2 construct: Human native serum was used as a source of BChE; from tissue; host or cells: human serum
Kind of experiment: Reversible inhibition of atypical BChE (Ellman method, Hunter–Downs evaluation). Conditions: enantiomers; substrate PTCh, pH 7.4, 25 °C; K(I) ± SE. The format is biochemical. As to the method: as §1, §2

The term Ki denotes a dissociation constant, usually derived from enzyme kinetics or from competition with a known ligand.

With `CC(Cc1ccc(O)cc1)NCC(O)c1cc(O)cc(O)c1` (stereo not shown) [Fenoterol], the “increase in inhibition potency” value at human AChE (AChE, compared to metaproterenol and terbutaline) is listed as “fivefold”. Besides, the “inhibition potency higher than other compounds of the same group” value on usual BChE (usual BChE, versus other resorcinol-, catechol- or saligenin-based compounds) is reported as “up to 23 times”.

In the case of `C[C@H](Cc1ccc(O)cc1)NC[C@H](O)c1cc(O)cc(O)c1` [(R,R)-fenoterol], the Ki on human AChE stood at 540 ± 30 µM; at usual BChE, 9.4 ± 0.8 µM; on fluoride-resistant BChE, 19 ± 4 µM; on atypical BChE it was 130 ± 20 µM.

As to `C[C@@H](Cc1ccc(O)cc1)NC[C@@H](O)c1cc(O)cc(O)c1` [(S,S)-fenoterol], the inhibitory constant (Ki) at human AChE is 350 ± 30 µM; at usual BChE it was 13 ± 1 µM; on fluoride-resistant BChE, 37 ± 5 µM; on atypical BChE, 100 µM.
